The values that follow are results of earlier work, collected in patent US20220380769A1 (priority 2020, published 2022).

For this data set the following is noted: concentration of 2.5 mg/ml; preclinical and clinical studies; cited from earlier work.

For rIn.r(C12U)n [Rintatolimod], the “safety profile administered intranasally” value is given as “well-tolerated”.
